What was measured:
Type in all cases: biochemical
[1] = target: T1, rat brain farnesyl:protein transferase (Rattus norvegicus, UniProt Q02293+Q04631); experiment: Farnesyl:protein transferase inhibition: competition with p21H-ras for [3H]farnesyl from [3H]FPP, partially purified enzyme, TCA filter assay
T1 construct: Brains from 50 male Sprague-Dawley rats (100-150 g) were homogenized; from tissue
Method: Farnesyl:protein transferase activity was determined by measuring the amount of ^3H-farnesol transferred from ^3H]farnesyl pyrophosphate ([^3H]FPP) to p21^H-ras protein. The standard reaction mixture contained the following concentrations of components in a final volume of 25 μl: 50 mM Tris-chloride (pH 7.5), 50 μM ZnCl2, 20 mM KCl, 1 mM DTT, and 40 μM p21^H-ras. The mixture also contained 10 pmoles of [^3H]FPP (−30,000 dpm/pmol) and 1.8-3.5 μg of partially purified farnesyl:protein transferase (see below). After incubation for 1 h at 37° C. in 12×75-mm borosilicate tubes, the reaction was stopped by addition of 0.5 ml of 4% SDS and then 0.5 ml of 30% trichloroacetic acid (TCA).
The tubes were vortexed and left on ice for 45-60 min, after which 2 ml of a 6% TCA/2% SDS solution were added. […] The tubes were rinsed twice with 2 ml of the same solution, and each filter was washed five times with 2 ml of 6% TCA, dried, and counted in a scintillation counter. One unit of activity is defined as the amount of enzyme that transfers 1 pmol of [^3H]farnesol from [^3H]FPP into acid-precipitable p21^H-ras per hour under the standard conditions.
In the enzyme characterization experiments of FIGS. 1-4, 8, and 9, a partially purified fraction of farnesyl:protein transferase was used. […]

[2] = target: T2, purified farnesyl:protein transferase (Rattus norvegicus, UniProt Q02293+Q04631); experiment: Farnesylation of tetrapeptides by purified farnesyl:protein transferase, thin layer chromatography (substrate or pure inhibitor); conditions: 3.6 μM tetrapeptide, purified enzyme (FIG. 15)
T2 construct: Brains from 50 male Sprague-Dawley rats (100-150 g) were homogenized; from tissue
Method: FIG. 15. […] The standard assay mixture (25 μl) contained 17 pmol [^3H]FPP (44,000 dpm/pmol), 5 ng of purified farnesyl:protein transferase, 0.2% (w/v) octyl-β-D-glucoside, and 3.6 μM of the indicated tetrapeptide. After incubation for 15 min at 37° C., the entire reaction mixture was subjected to thin layer chromatography for 4 h on Polygram SIL G sheet (Brinkmann Instruments) in a solvent system containing N-propanol/concentrated NH4OH/water (6:3:1). The TLC sheet was then dried, sprayed with ENHANCE Spray (Dupont-New England Nuclear) and exposed to Kodak X-OMAT AR Film XAR-5 for 25 h at −70° C.

[3] = target: T2, purified farnesyl:protein transferase; experiment: Inhibition of farnesylation of p21H-ras by affinity-purified farnesyl:protein transferase (FIG. 12A); conditions: affinity-purified enzyme, 40 μM p21H-ras
[4] = target: T2, purified farnesyl:protein transferase; experiment: Inhibition of [3H]farnesyl transfer to biotinylated KTSCVIM by purified enzyme, streptavidin-agarose capture (FIG. 12B); conditions: affinity-purified enzyme, 3.4 μM biotinylated KTSCVIM

| Structure (SMILES) | inhibitory activity against farnesylation of p21H-ras (in words) [1] | pure inhibitor or substrate for farnesylation [2] | potency relative to CVIM, p21H-ras as acceptor [3] | potency relative to CVIM, biotinylated heptapeptide as acceptor [4] |
| --- | --- | --- | --- | --- |
| CC[C@H](C)[C@H](NC(=O)[C@H](C)NC(=O)[C@@H](N)CS)C(=O)N[C@@H](CC(C)C)C(=O)O [CAIL] | did not compete efficiently |  |  |  |
| CSCC[C@H](NC(=O)[C@H](Cc1ccccc1)NC(=O)[C@@H](NC(=O)[C@@H](N)CS)C(C)C)C(=O)O [CVFM] | best inhibitor identified to date | not and pure inhibitors | more potent than CVIM | more potent than CVIM |
